# Measurements taken from article PMC12304827 (British Journal of Clinical Pharmacology, 2025).
# Several values for one entry are separate records, joined by “and”; a condition that tells them apart may be missing. Equal entries are not always repeated.
# Assays:
# [1] = OC study 2: EE and LN PK with/without ritlecitinib 50 mg QD
# [2] = OC study 1: EE and LN PK with/without ritlecitinib 200 mg QD
# [3] = OC with ritlecitinib 50 mg QD × 13 days vs OC alone
# [4] = OC with ritlecitinib 200 mg QD × 11 days vs OC alone
compound,measurement,setting,value
"C#C[C@]1(O)CC[C@H]2[C@@H]3CCC4=CC(=O)CC[C@@H]4[C@H]3CC[C@@]21CC [LN, levonorgestrel]","AUClast, ratio (test/reference) of adjusted geometric means (90% CI)",[1]; [3],87.9% and 87.9 (82.7–93.4) %
same,"Cmax, ratio (test/reference) of adjusted geometric means (90% CI)",[1]; [3],80.1% and 80.1 (73.1–87.8) %
same,Effect of ritlecitinib 50 mg QD on PK of OC steroid (in words),[1],did not produce a clinically meaningful change
same,Effect of ritlecitinib 50 mg QD on PK of OC steroid (in words),[1]; listed as levonorgestrel,did not affect
same,"AUClast, ratio (test/reference) of adjusted geometric means (90% CI)",[2]; [4],112.7% and 112.7 (104.2–122.0) %
same,"Cmax, ratio (test/reference) of adjusted geometric means (90% CI)",[2]; [4],103.1% and 103.1 (97.3–109.2) %
same,Effect of ritlecitinib 200 mg QD on PK of OC steroid (in words),[2],not affected
same,Effect of ritlecitinib 200 mg QD on PK of OC steroid (in words),[2]; listed as levonorgestrel,did not affect
